This passage reports IC50 results from ChEMBL document CHEMBL5331121, “Preferred Conformation-Guided Discovery of Potent and Orally Active HIF Prolyl Hydroxylase 2 Inhibitors for the Treatment of Anemia” (J Med Chem, 2023).

Chains of the proteins cited; added tags and fusions are not shown. Lines headed by an entry give the natural chain unless they say otherwise; changes in a name come on top.
UniProt Q9GZT9: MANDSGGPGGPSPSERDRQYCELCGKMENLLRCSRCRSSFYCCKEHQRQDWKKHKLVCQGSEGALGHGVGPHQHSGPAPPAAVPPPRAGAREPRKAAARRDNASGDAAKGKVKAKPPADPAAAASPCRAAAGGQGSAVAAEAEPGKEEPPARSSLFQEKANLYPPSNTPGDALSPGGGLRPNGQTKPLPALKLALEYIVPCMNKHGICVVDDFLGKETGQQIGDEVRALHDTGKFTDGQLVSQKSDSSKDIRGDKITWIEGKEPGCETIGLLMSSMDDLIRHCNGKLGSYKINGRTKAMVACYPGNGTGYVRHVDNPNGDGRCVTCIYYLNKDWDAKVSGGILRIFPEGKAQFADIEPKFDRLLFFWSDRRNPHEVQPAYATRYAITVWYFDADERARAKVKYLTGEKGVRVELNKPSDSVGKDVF

The assay addresses Egl nine homolog 1 (Homo sapiens, UniProt Q9GZT9). As to the kind of experiment: Binding affinity to […] PHD2 (181 to 426 residues) (unknown origin) by fluorescence polarization assay.

As a reminder, the IC50 is the midpoint of a concentration-inhibition curve. Low values mean inhibition by little substance, high ones a need for much substance. As to `O=C(O)CNC(=O)c1ncc(-c2cccc(Cl)c2)cc1O`, the IC50 worked out at 257 nM.
